Test results published in patent publication US20190084939A1, “ANALOGS OF FEXARAMINE AND METHODS OF MAKING AND USING” (Salk Institute for Biological Studies, priority 2014, published 2019).

Sequences of proteins named here, by UniProt entry; tags and fusion partners are left off. Residues count along the entry.
UniProt Q96RI1, 1-476 isoform 1: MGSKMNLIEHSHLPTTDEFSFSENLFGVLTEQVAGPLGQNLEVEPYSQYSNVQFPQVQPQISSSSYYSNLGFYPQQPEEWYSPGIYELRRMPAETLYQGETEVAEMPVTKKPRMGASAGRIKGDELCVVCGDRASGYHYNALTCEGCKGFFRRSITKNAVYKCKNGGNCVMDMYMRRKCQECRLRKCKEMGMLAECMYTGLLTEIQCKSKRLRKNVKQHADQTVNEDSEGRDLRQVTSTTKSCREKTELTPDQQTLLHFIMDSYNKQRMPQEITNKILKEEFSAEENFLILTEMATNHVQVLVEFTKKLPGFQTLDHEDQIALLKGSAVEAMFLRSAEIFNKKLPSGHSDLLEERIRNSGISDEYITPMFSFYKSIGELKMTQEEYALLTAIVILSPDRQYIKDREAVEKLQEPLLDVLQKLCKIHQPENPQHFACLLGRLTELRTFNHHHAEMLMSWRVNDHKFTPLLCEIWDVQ
UniProt P19793, whole entry partner: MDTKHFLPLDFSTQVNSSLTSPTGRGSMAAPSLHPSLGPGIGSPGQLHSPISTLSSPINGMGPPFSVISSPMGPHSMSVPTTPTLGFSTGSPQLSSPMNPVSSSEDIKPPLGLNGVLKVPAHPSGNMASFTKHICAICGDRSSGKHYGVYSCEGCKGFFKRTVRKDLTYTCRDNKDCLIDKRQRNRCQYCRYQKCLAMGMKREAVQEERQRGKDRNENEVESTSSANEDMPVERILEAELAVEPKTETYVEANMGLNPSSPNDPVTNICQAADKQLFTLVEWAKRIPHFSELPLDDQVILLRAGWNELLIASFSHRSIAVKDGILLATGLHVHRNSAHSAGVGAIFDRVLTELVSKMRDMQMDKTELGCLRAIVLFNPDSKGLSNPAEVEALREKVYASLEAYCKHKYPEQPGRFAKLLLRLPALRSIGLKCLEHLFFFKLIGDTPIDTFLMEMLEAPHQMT

Target: Human FXR full length (Homo sapiens, UniProt Q96RI1)
Test: FXR activity screen, luciferase reporter in transfected CV-1 cells

[2H]C(c1ccc(-c2ccc(N(C)C)cc2)cc1)N(C(=O)[C@@H]1C[C@@H]2CC[C@H]1C2)c1cc(F)cc(/C=C/C(=O)OC)c1 (stereo partly drawn)
EC50 (read-out: 1st RND EC50, first round, CV-1 cells, 24 hours): 66.8 nM
EC50 (read-out: 2nd RND EC50, second round, CV-1 cells, 24 hours): 58.5 nM
EC50 (read-out: EC50 (retested), retest): 83 nM

Read-outs that look alike come from different tables or passages of the source.
